{"source": "patent US12441767B2", "about": "(priority 2020, dated 2025)", "system": "p-Smad2", "type": "cell-based, human", "note": "Read-outs that look alike come from different tables or passages of the source. Ends that are not written are not given here."}
{"substance": "Gonearrestide (WCYKLPDRVSIKEKGRCN-NH2; cysteine pairing not given here) [P13]", "values": [{"measurement": "p-Smad2 expression", "setting": "E6 with 0.2 μmol AZD4547 + peptide (with or without FGF2) vs control E6 and E6 with 0.2 μmol AZD4547", "value": "up-regulated"}, {"measurement": "p-Smad2 expression", "setting": "E6 with 1.0 μmol PD173074 + peptide (with or without FGF2) vs control E6 and E6 with 1.0 μmol PD173074", "value": "up-regulated"}]}
